# Measured affinities in a library of Ab-14 light chain variants

Data: MIT Lincoln Laboratory AlphaSeq set, Engelhart et al. 2022, doi:10.1038/s41597-022-01779-4, as distributed in FLAb.

Antigen: PDVDLGDISGINAS, a 14-residue peptide of the SARS-CoV-2 spike HR2 region.

Each scFv is VH, the linker GGGGSGGGGSGGGGS, VL, as in the parent Ab-14, and differs from it in the CDRs of the light chain only.
VH: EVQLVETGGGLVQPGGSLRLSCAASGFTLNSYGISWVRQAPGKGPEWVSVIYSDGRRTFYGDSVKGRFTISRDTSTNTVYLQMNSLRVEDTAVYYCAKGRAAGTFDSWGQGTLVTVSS
VL: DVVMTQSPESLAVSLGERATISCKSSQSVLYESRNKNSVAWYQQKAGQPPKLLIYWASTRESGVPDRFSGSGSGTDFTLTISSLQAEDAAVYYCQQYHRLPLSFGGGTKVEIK

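The parent was found by panning a naive human phage display library on the peptide. In library AAYL50, one, two or three CDR residues were substituted; doubles and triples were drawn at random. In AlphaSeq, yeast of one mating type display the scFv and yeast of the other type display the target. After mating in shaken culture at 30 °C for 16 h, diploids were selected and their barcode pairs sequenced. Read counts were normalised to the haploid input and turned into Kd by a linear fit to BCL2-family pairs of known affinity, for each replicate. Mating was done three times.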

Substitutions are numbered in sequence along the VL above, starting at 1 (not Kabat). Every variant below is changed at S25 of the VL (sequential numbering). Each Kd is an estimate from the mating assay, the geometric mean of the replicates in which the pair was seen; lower is stronger. An entry "no signal" has no value in the source: the pair was not observed among the diploids in any replicate. This suggests poor binding but is not conclusive. Background: pairings of library AAYL50 with three empty control strains gave a value in 18% of cases (median 15 µM, 5th percentile 970 nM). Values in that range, when seen in few replicates, are hard to tell from nonspecific mating. The control count says in how many pairings with the empty strains this scFv gave a signal.

The variant S25L/Q27V/V39C showed 150 nM (3 of 3 replicates; controls 0 of 9). For S25E/R34L/Y97C, the assay gave 390 nM (3 of 3 replicates; controls 3 of 9). For S25R/S26E/L102R, the assay gave 18 nM (3 of 3 replicates; controls 1 of 9). The variant S25I/V39L/H98D gave 4.6 nM (3 of 3 replicates; controls 1 of 9). The variant S25M/S62E/L100S gave 16 nM (3 of 3 replicates; controls 2 of 9). With S25A/S62Y/S103I the result was 6.7 nM (3 of 3 replicates; controls 1 of 9).

For S25L/K36R/A57Y, the assay gave 160 nM (1 of 3 replicates; controls 0 of 9). The variant S25Q/S33V/S62Y showed 3.7 µM (2 of 3 replicates; controls 0 of 9). The variant S25L/Q95H/Y97R showed 1.0 µM (2 of 3 replicates; controls 0 of 9). With S25L/V29C/E32G the result was 1.3 nM (3 of 3 replicates; controls 3 of 9). For S25M/V39A/Y97E, the assay gave 3.9 µM (1 of 3 replicates; controls 3 of 9). The variant S25P/S62P/R99S gave 150 nM (3 of 3 replicates; controls 0 of 9).

With S25A/Y31S/A40H the result was no signal (0 of 3 replicates; controls 1 of 9). The variant S25T/P101C/L102Q showed 2.2 µM (1 of 3 replicates; controls 1 of 9). The variant S25Q/R99E/L102A gave 4.0 nM (3 of 3 replicates; controls 0 of 9). For K24A/S25A/S33G, the assay gave 7.4 nM (3 of 3 replicates; controls 2 of 9). With S25M/A57V/S58Y the result was no signal (0 of 3 replicates; controls 0 of 9). The variant S25W/A57T/R99Q gave 15 nM (3 of 3 replicates; controls 1 of 9).

The variant S25M/V29E/H98M showed 49 nM (3 of 3 replicates; controls 6 of 9). With S25T/V29E/S33C the result was 1.9 µM (1 of 3 replicates; controls 0 of 9). The variant S25A/Y31D/S38R showed 520 nM (3 of 3 replicates; controls 2 of 9). The variant S25I/V39W/L102I showed 100 nM (3 of 3 replicates; controls 1 of 9). For S25A/A40P/W56R, the assay gave 5.3 µM (2 of 3 replicates; controls 5 of 9). With S25L/Q95A/Y97K the result was 3.0 nM (3 of 3 replicates; controls 4 of 9).

For S25T/S26L/E32A, the assay gave 36 nM (3 of 3 replicates; controls 2 of 9). With S25H/W56I/R60W the result was no signal (0 of 3 replicates; controls 0 of 9). The variant S25D/S33G showed 3.6 nM (3 of 3 replicates; controls 2 of 9). The variant S25Q/S33T/K36L showed 8.3 nM (3 of 3 replicates; controls 1 of 9). The variant S25W/Q27F/V29S showed 2.6 nM (3 of 3 replicates; controls 1 of 9). For S25L/L30T/S33H, the assay gave 17 nM (3 of 3 replicates; controls 4 of 9).

The variant S25F/L100I/P101T gave 33 µM (1 of 3 replicates; controls 0 of 9). For S25L/A40H/L100E, the assay gave 6.3 µM (1 of 3 replicates; controls 0 of 9). For S25P/N37V/E61T, the assay gave 51 µM (2 of 3 replicates; controls 3 of 9). For S25M/L30E/A40W, the assay gave no signal (0 of 3 replicates; controls 1 of 9). With S25H/V39Q/S62G the result was 83 µM (1 of 3 replicates; controls 1 of 9).

Excerpt, the final 3 entries:

| changes | apparent Kd | detected | empty controls |
|---|---|---|---|
| S25P/N37V/E61T | 51 µM | 2 of 3 | 3 of 9 |
| S25M/L30E/A40W | no signal | 0 of 3 | 1 of 9 |
| S25H/V39Q/S62G | 83 µM | 1 of 3 | 1 of 9 |